Assay results taken from PubChem BioAssay (EPA / NIEHS).
The entries are a selection whose mix differs from that of the whole data set. Calls of active or inactive are those of the source. How the source made its calls: active means hit-call score of the fitted dose curve at least 0.9, where 1 is the maximum; inactive means score below 0.9.

The chains behind the UniProt entries cited, without tags or fusion partners.
UniProt Q16665, whole entry: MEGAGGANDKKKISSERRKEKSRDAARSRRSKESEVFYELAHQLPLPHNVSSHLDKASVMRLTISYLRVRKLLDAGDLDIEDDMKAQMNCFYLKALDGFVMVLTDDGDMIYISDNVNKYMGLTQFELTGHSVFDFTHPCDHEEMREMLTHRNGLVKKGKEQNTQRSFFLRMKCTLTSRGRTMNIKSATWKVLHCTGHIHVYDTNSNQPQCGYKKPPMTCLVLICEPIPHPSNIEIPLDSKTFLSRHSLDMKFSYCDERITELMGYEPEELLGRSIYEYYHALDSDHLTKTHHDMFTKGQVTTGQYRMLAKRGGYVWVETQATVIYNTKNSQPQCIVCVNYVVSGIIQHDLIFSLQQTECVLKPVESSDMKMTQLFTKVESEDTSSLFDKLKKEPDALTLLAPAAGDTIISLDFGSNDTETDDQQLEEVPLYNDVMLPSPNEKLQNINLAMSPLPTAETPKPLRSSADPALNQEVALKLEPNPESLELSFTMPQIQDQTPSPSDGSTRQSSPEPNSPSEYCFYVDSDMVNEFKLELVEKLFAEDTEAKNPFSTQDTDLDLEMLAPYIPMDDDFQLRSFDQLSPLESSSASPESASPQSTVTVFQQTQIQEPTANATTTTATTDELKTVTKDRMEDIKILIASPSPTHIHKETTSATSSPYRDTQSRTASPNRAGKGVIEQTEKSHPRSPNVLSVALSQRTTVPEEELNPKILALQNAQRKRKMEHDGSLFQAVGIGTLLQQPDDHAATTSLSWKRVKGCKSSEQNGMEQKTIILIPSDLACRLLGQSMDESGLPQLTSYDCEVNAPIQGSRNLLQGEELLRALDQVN

Experiments:
Conditions in all cases: actives raise or lower the signal; mRNA level, 48 h
[1] = read-out: Cytochrome P450 4A22 (Homo sapiens) (UniProt Q5TCH4); assay: LTEA_HepaRG_CYP4A22: Life Technologies and Expression Analysis (LTEA) Assay for Cytochrome P450 4A22 (CYP4A22) using HepaRG (AID 2283495)
How it was run: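 Gene expression measured by qRT-PCR against three housekeeping genes (ACTB, GAPDH, POLR2A), with gain or loss fitted relative to 0.5% DMSO vehicle. HepaRG cultures received 48 h chemical treatment, top concentration 100 uM, half-log steps, duplicate wells.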

[2] = read-out: Cytochrome P450 7A1 (Homo sapiens) (UniProt P22680); assay: LTEA_HepaRG_CYP7A1: Life Technologies and Expression Analysis (LTEA) Assay for Cytochrome P450 7A1 (CYP7A1) using HepaRG (AID 2283496)
How it was run: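 HepaRG cells plated 48 h, then switched to serum-free induction medium and exposed in duplicate for 48 h to 8-point half-log series from 100 uM in 0.5% DMSO. CYP7A1 mRNA by qRT-PCR (TaqMan), normalized to ACTB/GAPDH/POLR2A; bidirectional fit versus DMSO.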

[3] = read-out: Glutathione S-Transferase (GSTA2), GSTA2 (gene 2939); assay: LTEA_HepaRG_GSTA2: Life Technologies and Expression Analysis (LTEA) Assay for Glutathione S-Transferase (GSTA2) using HepaRG (AID 2283497)
How it was run: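 Differentiated human HepaRG cells were exposed in duplicate for 48 h in serum-free induction medium, 8 points from 100 uM top in half-log steps, 0.5% DMSO. GSTA2 mRNA was measured by TaqMan qRT-PCR, normalized to ACTB, GAPDH and POLR2A; bidirectional fit versus DMSO.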

[4] = read-out: Glutamate-cysteine ligase catalytic (GCLC), GCLC (gene 2729); assay: LTEA_HepaRG_GCLC: Life Technologies and Expression Analysis (LTEA) Assay for Glutamate-cysteine ligase catalytic (GCLC) using HepaRG (AID 2283498)
How it was run: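 Differentiated HepaRG cells exposed 48 h in serum-free induction medium, eight-point half-log series topping at 100 uM in 0.5% DMSO, duplicates. GCLC mRNA by qRT-PCR normalized to ACTB, GAPDH and POLR2A, fitted bidirectionally versus DMSO.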

[5] = read-out: growth arrest and DNA damage 45 (GADD45G), GADD45G (gene 10912); assay: LTEA_HepaRG_GADD45G: Life Technologies and Expression Analysis (LTEA) Assay for growth arrest and DNA damage 45 (GADD45G) using HepaRG (AID 2283499)
How it was run: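 GADD45G transcript level by qRT-PCR (housekeeping-normalized: ACTB, GAPDH, POLR2A) after 48 h chemical treatment of a single HepaRG lot in serum-free induction medium; eight-point half-log series up to 100 uM in 0.5% DMSO, duplicates, up- or down-regulation scored.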

[6] = read-out: Glutamate-cysteine ligase regulatory (GCLM), GCLM (gene 2730); assay: LTEA_HepaRG_GCLM: Life Technologies and Expression Analysis (LTEA) Assay for Glutamate-cysteine ligase regulatory (GCLM) using HepaRG (AID 2283500)
How it was run: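 Cells were plated, cultured 48 h, switched to serum-free induction medium, then dosed in duplicate for 48 h at eight half-log concentrations up to 100 uM. RNA was then profiled by qRT-PCR; gain or loss versus DMSO was fitted.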

[7] = read-out: Glutathione S-transferase M3 (GSTM3), GSTM3 (gene 2947); assay: LTEA_HepaRG_GSTM3: Life Technologies and Expression Analysis (LTEA) Assay for Glutathione S-transferase M3 (GSTM3) using HepaRG (AID 2283501)
How it was run: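 GSTM3 transcript levels came from Fluidigm TaqMan qRT-PCR normalized to three housekeeping genes, fitted in both directions against DMSO. HepaRG cultures received chemicals for 48 h in serum-free induction medium (0.5% DMSO), 8 half-log concentrations up to 100 uM, duplicate.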

[8] = read-out: Heat shock 70 kDa protein 1 (HSPA1A), gene 3303; assay: LTEA_HepaRG_HSPA1A: Life Technologies and Expression Analysis (LTEA) Assay for Heat shock 70 kDa protein 1 (HSPA1A) using HepaRG (AID 2283502)
How it was run: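 Readout is HSPA1A transcript level by microfluidic qRT-PCR, normalized to three housekeeping genes and analysed for gain or loss of signal relative to 0.5% DMSO. Human HepaRG cultures received test chemicals for 48 h at up to 100 uM.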

[9] = read-out: Hypoxia-inducible factor 1-alpha (Homo sapiens) (UniProt Q16665); assay: LTEA_HepaRG_HIF1A: Life Technologies and Expression Analysis (LTEA) Assay for Hypoxia-inducible factor 1 (HIF1A) Trancription factor using HepaRG (AID 2283503)
How it was run: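 Differentiated HepaRG cells in serum-free induction medium exposed 48 h, in duplicate, to 8-point half-log series from 100 uM in 0.5% DMSO. HIF1A mRNA measured by TaqMan qRT-PCR, normalized to ACTB/GAPDH/POLR2A, fitted bidirectionally versus DMSO.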

[10] = read-out: 3-Hydroxy-3-Methylglutaryl-CoA Synthase 2 (HMGCS2), HMGCS2 (gene 3158); assay: LTEA_HepaRG_HMGCS2: Life Technologies and Expression Analysis (LTEA) Assay for 3-Hydroxy-3-Methylglutaryl-CoA Synthase 2 (HMGCS2) using HepaRG (AID 2283504)
How it was run: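 Readout is HMGCS2 transcript by qRT-PCR, housekeeping-normalised (ACTB/GAPDH/POLR2A) and fitted bidirectionally against 0.5% DMSO. Differentiated HepaRG cells received chemicals 48 h, duplicate wells, eight half-log concentrations topping at 100 uM.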

[11] = read-out: HGF (gene 3082); assay: LTEA_HepaRG_HGF: Life Technologies and Expression Analysis (LTEA) Assay for Hepatocyte Growth Facto (HGF) using HepaRG (AID 2283505)
How it was run: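 HGF transcript was quantified by TaqMan qRT-PCR against three housekeeping genes after 48 h treatment of HepaRG cells. Exposure ran in duplicate over eight half-log steps topping at 100 uM in 0.5% DMSO vehicle.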

[12] = read-out: Insulin Like Growth Factor 1 (IGF1), IGF1 (gene 3479); assay: LTEA_HepaRG_IGF1: Life Technologies and Expression Analysis (LTEA) Assay for Insulin Like Growth Factor 1 (IGF1) using HepaRG (AID 2283506)
How it was run: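 HepaRG, plated 48 h, then switched to serum-free induction media; test chemical 8-pt half-log from 100 uM (0.5% DMSO), duplicate, 48 h. Lysis in RLT, TaqMan qRT-PCR, norm. ACTB/GAPDH/POLR2A. Bidirectional fit vs DMSO.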

[13] = read-out: Intercellular Adhesion Molecule 1 (ICAM1), ICAM1 (gene 3383); assay: LTEA_HepaRG_ICAM1: Life Technologies and Expression Analysis (LTEA) Assay for Intercellular Adhesion Molecule 1 (ICAM1) using HepaRG (AID 2283507)
How it was run: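 ICAM1 transcript levels measured by qRT-PCR, normalized to three housekeeping genes (ACTB, GAPDH, POLR2A), after 48 h chemical exposure of HepaRG cells. Duplicate eight-point half-log series from 100 uM in 0.5% DMSO; gain or loss fitted against vehicle.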

[14] = read-out: Insulin-like growth factor-binding protein 1 (IGFBP1), IGFBP1 (gene 3484); assay: LTEA_HepaRG_IGFBP1: Life Technologies and Expression Analysis (LTEA) Assay for Insulin-like growth factor-binding protein 1 (IGFBP1) using HepaRG (AID 2283508)
How it was run: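 Read-out is qRT-PCR transcript level normalized to three housekeeping genes, fitted in both directions against 0.5% DMSO. Differentiated HepaRG cells received eight half-log concentrations (top 100 uM) in duplicate for 48 h in serum-free induction medium.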

[15] = read-out: Interleukin 6 (IL6), IL6 (gene 3569); assay: LTEA_HepaRG_IL6: Life Technologies and Expression Analysis (LTEA) Assay for Interleukin 6 (IL6) using HepaRG (AID 2283509)
How it was run: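 HepaRG cells exposed in duplicate for 48 h to eight half-log concentrations, top 100 uM, in 0.5% DMSO serum-free induction medium. mRNA measured by qRT-PCR, normalized to ACTB, GAPDH and POLR2A. Bidirectional fit versus DMSO.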

[16] = read-out: Interleukin 6 Receptor (IL6R), IL6R (gene 3570); assay: LTEA_HepaRG_IL6R: Life Technologies and Expression Analysis (LTEA) Assay for Interleukin 6 Receptor (IL6R) using HepaRG (AID 2283510)
How it was run: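 Readout is IL6R transcript level by TaqMan qRT-PCR, normalized to three housekeeping genes and fitted bidirectionally against 0.5% DMSO controls. Human HepaRG cells received chemicals for 48 h in serum-free induction medium, highest concentration 100 uM.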

[17] = read-out: Potassium channel subfamily K member 1 (KCNK1), KCNK1 (gene 3775); assay: LTEA_HepaRG_KCNK1: Life Technologies and Expression Analysis (LTEA) Assay for Potassium channel subfamily K member 1 (KCNK1) using HepaRG (AID 2283511)
How it was run: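 Differentiated HepaRG cells, 48 h exposure in serum-free induction medium with 0.5% DMSO; 8 concentrations, half-log from 100 uM, duplicate. KCNK1 mRNA by qRT-PCR, normalized to ACTB, GAPDH, POLR2A; bidirectional fit vs DMSO.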

[18] = read-out: Keratin 19 (KRT19), KRT19 (gene 3880); assay: LTEA_HepaRG_KRT19: Life Technologies and Expression Analysis (LTEA) Assay for Keratin 19 (KRT19) using HepaRG (AID 2283512)
How it was run: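 KRT19 transcript measured by TaqMan qRT-PCR, referenced to three housekeeping genes, after HepaRG cells received test chemicals for 48 h. Eight half-log concentrations, top 100 uM, 0.5% DMSO vehicle; increases and decreases both fitted.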

[19] = read-out: JUN Transcription Factor, JUN (gene 3725); assay: LTEA_HepaRG_JUN: Life Technologies and Expression Analysis (LTEA) Assay for JUN Transcription Factor using HepaRG (AID 2283513)
How it was run: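 Cells plated 48 h, medium switched to serum-free induction medium, then dosed 48 h (100 uM top, half-log dilutions, 0.5% DMSO). RNA isolated; JUN measured by qRT-PCR against three housekeeping genes; gain or loss fitted relative to DMSO.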

[20] = read-out: Lipase C (LIPC), LIPC (gene 3990); assay: LTEA_HepaRG_LIPC: Life Technologies and Expression Analysis (LTEA) Assay for Lipase C (LIPC) using HepaRG (AID 2283514)
How it was run: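 HepaRG cells, 48 h after plating, treated in duplicate for 48 h in serum-free induction medium over 8 half-log concentrations from 100 uM, 0.5% DMSO. LIPC mRNA by TaqMan qRT-PCR normalized to ACTB/GAPDH/POLR2A; bidirectional fit versus DMSO.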

Measured: outcome

O=[N+]([O-])c1ccccc1[N+](=O)[O-]
inactive: [1] | [2] | [3] | [4] | [5] | [6] | [7] | [8] | [9] | [10] | [11] | [12] | [13] | [14] | [15] | [16] | [17] | [18] | [19] | [20]
